Experimental findings from publication PMC5059467, “Anti-tubulin drugs conjugated to anti-ErbB antibodies selectively radiosensitize” (Nature Communications, 2016) are described below.

In series [1] the test system is CALU3 cells. Kind of series: Alamar blue cell viability, CALU3 cells. The series is classed as cell-based, human. As to conditions: 96 hours.
Series [2] deals with CAL-27 cells. The experiment in a line: Neutral comet assay after IR, CAL-27 cells. The series is classed as cell-based, human. The note with it: 0.5 nM overnight, 6 Gy, compared with irradiated vehicle. Here is the method: (§1) Cells were treated with indicated times doses of MMAE, mertansine, cetuximab, cetuximab-MMAE, trastuzumab, trastuzumab-MMAE or T-DM1 overnight, and then irradiated with 6 Gy. Cells were collected 15 min post IR, suspended in agarose gel and lysed per assay directions (Trevigen). Samples underwent electrophoresis under neutral conditions and were then stained with Sybr Green. Comet tails were counted in multiple fields (>60 cells per sample) and analysed using CometScore (TriTek Corp). Comet tail length was normalized to vehicle-treated, non-irradiated cells.

For a further series, the system named is LN229 cells. Kind of series: Neutral comet assay after IR, LN229 cells. The series is classed as cell-based, human. The note with it: 20 nM overnight, 6 Gy, low EGFR binding LN229. The method, then: as §1
In series [3] the test system is CALU3 cells. The experiment in a line: Neutral comet assay after IR, CALU3 cells. As to conditions: 2 nM overnight, 6 Gy, compared with vehicle or 20 nM antibody. The series is classed as cell-based, human. The method, then:
as §1

Series [4] concerns CAL-27 cells. Kind of series: Clonogenic cell survival (SF2), CAL-27 cells. The series is classed as cell-based, human. The note with it: drug overnight then 2 Gy, compared with vehicle. Here is the method: Cells were treated with MMAE, mertansine, cetuximab or cetuximab-MMAE for 24 h and then irradiated with 2 Gy. Following IR, cells were counted, re-plated at varying cell numbers in drug-free media. 10–14 days after initial seeding formed colonies were methanol fixed, stained with crystal violet and counted. Surviving fraction at 2 Gy (SF2) was calculated as the fraction of cells surviving 2 Gy compared with non-irradiated cells.

Another series deals with OE19 cells. The experiment in a line: Cell cycle profile (propidium iodide, flow cytometry), OE19 cells. The series is classed as cell-based, human. The note with it: overnight treatment. Here is the method:
Cells were treated with RNAse, stained with propidium iodide (PI) and analysed by FACS using FloJo software.
(In general: In flow cytometry, cells or beads pass a laser one at a time.)

Series [5] deals with CAL-27 cells. The experiment in a line: Cell cycle profile (propidium iodide, flow cytometry), CAL-27 cells. The series is classed as cell-based, human. The note with it: overnight treatment. The method, then: Cells were treated with MMAE, mertansine, cetuximab or cetuximab-MMAE, trastuzumab, trastuzumab-MMAE or T-DM1 for 24 h and then fixed in methanol. Cells were treated with RNAse, stained with propidium iodide (PI) and analysed by FACS using FloJo software.

Series [6] has as its system CAL-27 cells. The experiment in a line: ADC cell surface binding (Cy5, flow cytometry), CAL-27 cells. On the set-up: species or system human. As to conditions: Cy5-labelled ADC, on ice, increasing concentrations. The method, then: Cells were collected and resuspended in cold PBS with 5% BSA. Cy5-labelled cetuximab-MMAE or trastuzumab-MMAE was added to the cells at indicated concentrations for 15 min on ice. Cells were washed, resuspended in PBS with 5% BSA and 0.5 μg ml^−1 propidium iodide, and analysed by flow cytometry.

For a further series, the system named is CAL-27 tumour xenografts. Kind of series: CAL-27 tumour xenograft growth with or without IR. The series is classed as in vivo, mice. Here is the method:
CAL-27, OE19, NCI N87 and HCT116 tumour xenografts were established and tumour growth was measured with digital calipers. Tumour volume was measured blindly to treatment group and calculated using the formula as ½ × length × width^2. Mice were randomized into groups once the average tumour volume reached >100 mm^3. Mice were assigned to indicated groups in ‘Results'. […] For irradiated mice, the tumour-bearing hindlimbs were focally irradiated while the remainder of the mouse was shielded from IR with custom designed lead blocking >95% of the dose as verified by dosimeters placed on the mouse. Free MMAE was injected on an equimolar basis to C-MMAE in final volume of 3% DMSO. Drug doses and IR fractionation are as indicated in ‘Results'. To prevent unnecessary morbidity, mice were killed if tumour length exceeded 15 mm per protocol. Nonlinear regression least squares fit was used to calculate tumour volume doubling times. Tumour doubling times were extrapolated for T-DM1+IR groups where tumour doubling was been achieved. To minimize the number of mice used, tumours were grown in the bilateral flanks. For CAL-27 tumour xenografts in experiment Fig. 4f, the number of mice and tumours per group were: control (5 mice, 10 tumours), IR (5 mice, 10 tumours), MMAE (4 mice, 8 tumours) MMAE+IR (5 mice, 10 tumours), cetuximab (5 mice, 10 tumours), cetuximab+IR (5 mice, 10 tumours), C-MMAE (4 mice, 8 tumours), C-MMAE+IR (5 mice, 10 tumours). For CAL-27 tumour xenografts in experiment Fig. 4g, the number of mice and tumours per group were: control (4 mice, 8 tumours), IR (5 mice, 10 tumours), cetuximab+MMAE (5 mice, 10 tumours) cetuximab+MMAE+IR (5 mice, 10 tumours), C-MMAE (5 mice, 10 tumours), C-MMAE+IR (5 mice, 10 tumours). […] For OE19 tumour xenografts in experiment Fig. 5d,e and Table 1, the number of mice and tumours per group were: control (5 mice, 10 tumours), IR (5 mice, 10 tumours), trastuzumab (5 mice, 10 tumours), trastuzumab+IR (5 mice, 10 tumours), T-DM1 (5 mice, 10 tumours) and T-DM1+IR (5 mice, 10 tumours). For NCI N87 tumour xenografts in experiment Fig. 5d,e and Table 1, the number of mice and tumours per group were: control (2 mice, 4 tumours), IR (3 mice, 6 tumours), trastuzumab (3 mice, 6 tumours), trastuzumab+IR (4 mice, 8 tumours), T-DM1 3 mice, 6 tumours) and T-DM1+ IR (4 mice, 8 tumours). For HCT116 tumour xenografts in experiment Fig. 5d,e and Table 1, the number of mice and tumours per group were: control (3 mice, 6 tumours), IR (4 mice, 8 tumours), trastuzumab (3 mice, 6 tumours), trastuzumab+IR (3 mice, 6 tumours), T-DM1 (3 mice, 6 tumours) and T-DM1+ IR (4 mice, 8 tumours).

The next series concerns EGFR expressing tumours. Kind of series: In vivo Cy5 optical imaging of EGFR expressing tumour xenografts. More on the design: species or system mice. As to conditions: 0.5 nmol Cy5-labelled C-MMAE i.v. Here is the method: All animal work was done in compliance with the University of California San Diego Institutional Animal Use and Care Committee. Six-to-eight-week-old female athymic nu/nu mice purchased from the University of California San Diego Animal Care Program breeding colony were injected subcutaneously into the bilateral upper thighs with 5 × 10^6 CAL-27, SQ9-G, SCC-35, SCC-61, A549, HCT-116, OE19 or LN229 tumour cells in a 1:1 Matrigel (BD) and PBS solution. After tumours grew to >100 mm^3 they were injected with 0.5 nmol of Cy-labelled cetuximab-MMAE, trastuzumab-MMAE (∼4 and ∼3.9 mg kg^−1, respectively) as described above. For imaging, mice were anaesthetized (1:1 mixture of 100 mg ml^−1 of ketamine and 5 mg ml^−1 of midazolam). Animals were imaged using a Maestro Small Animal Imager (CRI) with excitation filter of 620/22 and 645 nm long-pass emission filter with dichroic filter tuned to 670 nm. Imaging was done both with skin on and after skin removal to decrease autofluorescence and scattering. […] At various time points after injection, the tail was pricked and a small volume (5–10 μl) of blood was collected in a heparinized hematocrit tube. Fluorescent images were taken using the Maestro, with the filters mentioned above, and the integrated fluorescent intensity was measured using Image J.

The subject of a further series is EGFR+ tumour xenografts. Kind of series: Immunohistochemistry of EGFR+ tumour xenografts (pS10 Histone H3). The series is classed as in vivo, mice. The note with it: tumours harvested 24 h after injection. Here is the method: Tissue sections were cut from blocks of formalin-fixed paraffin embedded xenografts. Four micron thick tissue sections were stained with antibodies to phospho-histone H3 (pH3, Abcam, catalogue number ab32107) and cleaved caspase-3 (ClC3, Cell Signaling Technology, catalogue number 9661) and used at dilutions of 1:300 and 1:900, respectively. Slides were stained on a Ventana Discovery Ultra (Ventana Medical Systems, Tucson, AZ, USA). Antigen retrieval was performed using CC1 for 24–40 min at 95 °C. The primary antibodies were incubated on the sections for 1 h at 37 °C. Primary antibodies were visualized used DAB as a chromagen using the UltraMap system (Ventana Medical systems) followed by hematoxylin as a counterstain. Slides were rinsed, dehydrated through alcohol and xylene and coverslipped.

For the substance “C-MMAE: monomethyl auristatin E conjugated to cetuximab via maleimidocaproyl-valine-citrulline-PABA linker, Cy5-labelled, ∼3.7 MMAE per antibody”, the “cytotoxicity of C-MMAE compared with T-MMAE” value in the series on CALU3 cells [1] is on record as “equally cytotoxic”. Moreover, the “effect on IR induced comet tail length” value in the series on CAL-27 cells [2] was “significantly increased”; with LN229 cells, “not appreciably increased”; with CALU3 cells [3], “increased comet tail length to a similar degree”. The “surviving fraction following 2 Gy (SF2)” value in the series on CAL-27 cells [4] is “decreased”. The entries for the “cell cycle profile (G2/M)” value in the series on OE19 cells and in the series on CAL-27 cells [5] were “did not influence the cell cycle profile” and “G2/M arrest”, respectively. Further, the cell surface binding result in the series on CAL-27 cells [6] was “dose-dependent manner”. In addition, in the series on CAL-27 tumour xenografts (0.5 nmol day 0, 3 Gy days 1 and 2, P<0.0001 compared with all other groups by day 35), the “tumour growth delay with IR” value is listed as “significantly increased tumour growth delay”. The “Mean Diff. Control vs. treatment + IR (Tukey's multiple comparisons, tumour volume)” value in the series with CAL-27 tumour xenografts (Fig 4f, day 35, + IR 3 Gy on days 1 and 2, 0.5 nmol cetuximab or C-MMAE, 2 nmol free MMAE on day 0) amounted to 893.5; in the series on CAL-27 tumour xenografts (Fig 4g, day 28, + IR 3 Gy on days 1, 2), 456.9. The “Mean Diff. Control vs. treatment (Tukey's multiple comparisons, tumour volume)” value with CAL-27 tumour xenografts (Fig 4f, day 35, no IR, 0.5 nmol cetuximab or C-MMAE, 2 nmol free MMAE on day 0) is 646.7; in the series with CAL-27 tumour xenografts (Fig 4g, day 28, no IR), 347.3. The “tumour size compared with co-administered cetuximab and free MMAE” value in the series on CAL-27 tumour xenografts (irradiated groups, P<0.05 by day 28) is listed as “significantly smaller tumours”. Also, the “persistence in murine xenografts (Cy5 signal)” value in the series on EGFR expressing tumours is listed as “up to 72 h”. The “accumulation in G2/M by pS10 Histone H3 staining compared with cetuximab” value in the series with EGFR+ tumour xenografts is given as “increased accumulation in G2/M”.
